Assays:
[1] = system: rat liver; conditions: in vivo, 0.01 mg/kg/day
[2] = system: rat liver; conditions: in vivo, 0.01 mg/kg/day; remark: listed apart in the source

TNF-alpha
Histopathology examination of liver [1]: no observable liver abnormality | Liver damage call by hepatotoxicity score versus individual clinical chemistry measures [2]: false negatives
